{"sequences": {"note": "Chains of the proteins cited; added tags and fusions are not shown. Lines headed by an entry give the natural chain unless they say otherwise; changes in a name come on top.", "UniProt A0R2W9": "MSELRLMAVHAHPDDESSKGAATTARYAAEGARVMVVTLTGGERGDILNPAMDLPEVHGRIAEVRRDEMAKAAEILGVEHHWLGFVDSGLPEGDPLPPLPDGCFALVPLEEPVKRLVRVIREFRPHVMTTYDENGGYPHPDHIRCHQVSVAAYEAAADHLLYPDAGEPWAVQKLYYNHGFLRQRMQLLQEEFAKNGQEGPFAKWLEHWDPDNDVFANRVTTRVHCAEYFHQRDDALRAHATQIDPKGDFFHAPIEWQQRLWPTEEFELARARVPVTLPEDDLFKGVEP"}, "source": "patent US7642280B2", "about": "“Inhibitors of acyl glucosaminyl inositol amidase and methods of use” (The Regents of the University of California, priority 2001, dated 2010)", "biological_target": "Mycobacterium smegmatis mycothiol-S-conjugate amidase (MCA) (Mycolicibacterium smegmatis, UniProt A0R2W9)", "test": "Fluorescence-based HPLC IC50 assay, wild type M. smegmatis MCA with natural MSmB", "format": "biochemical", "conditions": "wild type M. smegmatis MCA approx. 20 nM, 30 μM natural MSmB, 20 min, 31° C.; read-out: IC50 M. smeg", "data": [{"substance": "oceanapiside aglycon [Compound 8]", "values": [{"measurement": "IC50", "value": 5, "unit": "µM"}]}]}
